Measured values: US9532519B2, “Plant growth regulator and use thereof” (Japan Science and Technology Agency, priority 2006, dated 2017)

System: transformants to which the gFBA gene was introduced
Settings: liquid fertilizers at same concentrations in terms of S amount

Row | Compound | effect of increasing the seed weight (saturation)
1 | N[C@@H](CCC(=O)N[C@@H](CS)C(=O)NCC(=O)O)C(=O)O [GSH, reduced glutathione] | not saturated at tested concentrations
2 | N.N.O=S(=O)(O)O [ammonium sulfate, reference compound] | saturated at a value similar to that of the effect of ammonium nitrate
